Literature values, collected in patent publication US11568956B2, “Methods for identifying inhibitors of amyloid protein aggregation” (Treventis Corporation, priority 2008, dated 2023).

The chains behind the UniProt entries cited, without tags or fusion partners. Residues count along the entry.
UniProt P05067, 672-711 limits assumed: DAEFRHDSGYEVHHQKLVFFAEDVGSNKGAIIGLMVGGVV

Target: Aβ (Homo sapiens, UniProt P05067)
Settings: unit not in the table, μM; Masuda test set; read-out: Expt (IC50); cited from earlier work

| Substance | IC50 |
| --- | --- |
| Catechin | > 40 µM |
| Catechin gallate | 5 µM |
